## Ab-14 heavy chain CDR variants: yeast mating affinities

Target peptide (SARS-CoV-2 spike, HR2 region): PDVDLGDISGINAS

Parent scFv Ab-14: VH joined to VL by three GGGGS repeats. Changes lie in the heavy chain CDRs alone.
VH: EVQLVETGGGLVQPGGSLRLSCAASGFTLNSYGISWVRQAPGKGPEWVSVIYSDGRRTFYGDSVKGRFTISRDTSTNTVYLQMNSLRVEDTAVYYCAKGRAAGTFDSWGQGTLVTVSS
VL: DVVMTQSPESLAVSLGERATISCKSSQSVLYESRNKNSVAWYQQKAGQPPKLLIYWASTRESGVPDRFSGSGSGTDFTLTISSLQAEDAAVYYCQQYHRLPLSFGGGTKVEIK

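The starting antibody came from a phage panning campaign against this peptide. The variants were designed computationally from a first round of random CDR variants and then made and measured. Group labels follow the data file (Ctrl: baseline library sampled from a position-specific scoring matrix, with some repeated check sequences; Rand: our label for a block that the file lists under HC and that is probably the random mutants of the ten best first-round binders; En: ensemble of fine-tuned language models; GP: Gaussian process model; GPLM: also part of the Gaussian process libraries; HC: hill climbing; Gen: genetic algorithm; Gibbs: Gibbs sampling; a sequence that several methods proposed may carry one label only). In AlphaSeq, yeast of one mating type display the scFv and yeast of the other type display the target. The frequency of each diploid, read from paired DNA barcodes, reflects how well the two displayed proteins bind. Each replicate has its own calibration line, from reference interactions of the BCL2 family. There are six technical replicates.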

Variants are written as CDR1, CDR2 and CDR3 of the heavy chain (limits as in the source). Parent: GFTLNSYGIS, VIYSDGRRTFYGDSVK, GRAAGTFDS. Values are log10 of the apparent Kd in nM; lower means stronger binding. Replicates are averaged; those with no signal do not enter the mean. Where no diploid with the target was found in any replicate, the entry reads "no signal": below detection, most likely a poor binder, though not proof of it. Values of this round are not directly comparable with the first-round values of the same sequences.

| CDR-H1 | CDR-H2 | CDR-H3 | group | mean, log10 nM | detected |
|---|---|---|---|---|---|
| GFDLDEYGIS | VIYADGMRTAYVDSVK | GNQAGTFDL | En_Gen | -0.87 | 6/6 |
| KFDLNSYGIS | VIYSDGRRTFYGDSVK | GWAAGTFDS | GP_Gibbs | no signal | 0/6 |
| RFTLNDYGIS | VDYSDGRRTFYGDSVK | GNAAGTFDS | Ctrl | no signal | 0/6 |
| GFELNMYGIS | VIYSDGRRTFYHDSVK | GQAAGTFDS | GP_Gibbs | 0.75 | 6/6 |
| GHTLDSYGIS | VIYSDGRRTFYGDSVK | GRAKGAFMT | Ctrl | no signal | 0/6 |
| GEDLGEYGIS | VIYADGVRFSYIDSVK | GQSTGFLDV | En_Gibbs | no signal | 0/6 |
| GFDLNEYGIS | VIYADGLRTAYADSVK | GGNAGTFDV | En_Gen | -1.20 | 5/6 |
| GFDLNEYGIS | VIYADGVRTAYTDSVK | GNNAGTFDI | En_Gen | -0.40 | 6/6 |
| GFGLNEYGIS | VIYSDGRRTFYVDSVK | GKAAGTFDT | GP_Gibbs | 0.93 | 6/6 |
| GFELNSYGIS | VIYSDGRRTFYHDSVK | GRTAGTFDT | GP_Gen | 0.31 | 6/6 |
| GFALNEYGIS | VIYADGFRAAYTDKVK | GVTVGNFSS | En_Gibbs | 0.32 | 6/6 |
| GFTLEKYGIS | VIYSDGRRTFYGDSVK | GRTAGTFDS | GP_HC | 0.50 | 6/6 |
| GMDLNEYGIS | VIYADGSRTSYQEKVK | GLVGGMLDV | En_Gibbs | no signal | 0/6 |
| GFNLNEYGIS | VIYADGKRTFYADSVK | GHQAGTFDM | En_HC | -0.78 | 6/6 |
| GFDLEEFGIS | VIYADGTRKMYLPTVK | GVTGGTFDM | En_Gibbs | 1.01 | 6/6 |
| GFTLDSYGIS | VIYADGRRTFYGDSVK | GRAAGTFGS | GP_HC | 1.38 | 2/6 |
| GFDLNEYGIS | VIYADGLRTAYADSVK | GNVAGTFDM | En_Gen | -1.65 | 6/6 |
| GFNFDEYGIS | VIYADGKRNFYSDSVK | GYIGGFMEV | En_Gibbs | 2.30 | 1/6 |
| GMTLNEYGIS | VIYSDGRRTFYTDSVK | GRTAGTFDS | GP_HC | 0.60 | 6/6 |
| GFDFQEYGIS | VIYADGQRAVYSDSVK | GNIGAIFSD | En_Gibbs | no signal | 0/6 |
| GFDLDEYGIS | VIYADGQRTAYSDSVK | GTNAGTFDV | En_Gen | -0.41 | 6/6 |
| GFTLNSYGIS | VIYFDGRRTFYADSVK | GRAAGTFDS | Ctrl | 1.37 | 3/6 |
| GFTLNDYGIS | VIYSDGRRQFYGDSVK | GRAAGTFDS | Ctrl | 1.44 | 5/6 |
| GFTLNSYGIS | VIYSDGRRTFYSDSVK | GRAGPTFDS | Rand | no signal | 0/6 |
| GFELNSYGIS | VIYSDGRRTFYSDHVK | GRTAGTFDS | GP_Gibbs | 1.61 | 6/6 |
| GFDLNEYGIS | VIYADGMRTFYTDSVK | GETAGTFDV | En_HC | -0.58 | 6/6 |
| GFSLNEYGIS | VIYSDGRRTFYGDSVK | GRMAGTFDA | GP_Gibbs | -0.06 | 6/6 |
| GFTLNSYGIS | VIYSDGRRNFYTDSVK | GRNAGTVDQ | Ctrl | no signal | 0/6 |
| GFELNSYGIS | VIYSDGKRTFYGDSVK | GRQAGTFDS | GPLM_Gibbs | 0.25 | 3/6 |
| GFTLNSYGIS | VIYSDGVRTFYADSVK | GSAAGRFDS | Ctrl | no signal | 0/6 |
| GFTLNEYGIS | VIYSDGRRTFYGDSVK | GRTAGTFMT | GP_HC | 2.34 | 1/6 |
| GFDLDEYGIS | VIYADGRRTFYTDSVK | GQLAGTFDL | En_HC | -0.26 | 6/6 |
| GFSLNDYGIS | VIYSDGRRTFYADAVK | GRTAGTFDS | GPLM_Gen | -0.41 | 6/6 |
| GFSLNSYGIS | VIYSDGRRTFYGDQVK | GNTAGTFDS | GP_Gen | -0.12 | 6/6 |
| GFDIQEYGIS | VIYADGNRSAYIDAVK | GDTGSSFLE | En_Gibbs | no signal | 0/6 |
| GFTLNEYGIS | VIYSDGRRTFYSDAVK | GRLAGTFDS | GP_HC | -0.10 | 6/6 |
| GFTNNDYGIS | VIYSDGRRTFYSDDVK | GRAAGTFDS | Ctrl | 2.47 | 2/6 |
| GFTLNDYGIS | VIYSDGRRTFYHDSVK | GRTAGTFDS | GPLM_Gen | -0.07 | 6/6 |
| GFELNSYGIS | VIYSDGRRTFYVDSVK | GKNAGTFDS | GP_Gen | 1.08 | 3/6 |
| GFDLDEYGIS | VIYADGMRTAYSDSVK | GQNAGTFDL | En_Gen | -0.30 | 6/6 |
| GESLNEYGIS | VIYSDGRRTFYGDSVK | GRTAGTFDS | GP_Gen | 1.62 | 6/6 |
| GFTLNDYGIS | VIYSDGRRTMYIDSVK | GRTAGTFDS | GP_HC | 0.41 | 6/6 |
| GFPLNSYGIS | VIYSDGRRTFYGDSVK | GTAAGTKDS | Ctrl | no signal | 0/6 |
| GFQLNSYGIS | VIYSDGRRTFYADQVK | GNAAGTFDS | GP_Gibbs | 0.97 | 5/6 |
| GFSLNSYGIS | VIYSDGRRTFYVDSVK | GRNAGTFDS | GPLM_Gen | 0.83 | 6/6 |
| GFTLNDYGIS | VIYSDGRRTFYGDAVK | GRQAGTFDT | GP_Gibbs | 0.11 | 4/6 |
| GFSLNEYGIS | VIYSDGRRTFYGDEVK | GRTAGTFDS | GP_Gen | -0.42 | 6/6 |
| KFDLNSYGIS | VIYSDGRRTFYADSVK | GRQAGTFDS | GP_Gen | 1.02 | 6/6 |
| GFDLNEYGIS | VIYADGMRTAYADKVK | GANAGTFDV | En_Gen | -0.12 | 6/6 |
| GFDLNEYGIS | VIYADGMRTSYADSVK | GQNAGTFDI | En_Gen | -0.34 | 6/6 |
| GFTLNEYGIS | VIYSDGRRTFYGDSVK | GRAAETFCV | GP_HC | 1.51 | 3/6 |
| GFDLNEYGIS | VIYADGRRTQYIDSVK | GEVAGTFDV | En_HC | -0.36 | 6/6 |
| GFGLNSYGIS | VIYSDGRRTFYADSVK | GNAAGTFDS | GPLM_Gen | 1.02 | 6/6 |
| GFTLNSYGIS | VIYSDGRRTFYGDSVK | GQVAGKFDS | GP_HC | no signal | 0/6 |
| GFDLDEYGIS | VIYADGRRTFYADSVK | GTIAGTFDA | En_HC | -0.28 | 6/6 |

For reference, 5 entries of the list once more:

CDR-H1	CDR-H2	CDR-H3	group	mean, log10 nM	detected
GFDLNEYGIS	VIYADGMRTFYTDSVK	GETAGTFDV	En_HC	-0.58	6/6
GFPLNSYGIS	VIYSDGRRTFYGDSVK	GTAAGTKDS	Ctrl	no signal	0/6
GFTNNDYGIS	VIYSDGRRTFYSDDVK	GRAAGTFDS	Ctrl	2.47	2/6
GFGLNSYGIS	VIYSDGRRTFYADSVK	GNAAGTFDS	GPLM_Gen	1.02	6/6
GFDLEEFGIS	VIYADGTRKMYLPTVK	GVTGGTFDM	En_Gibbs	1.01	6/6

Background: pairings of all heavy chain designs with three empty control strains gave a value in 1% of cases (median 2.08, 5th percentile 0.84). Values in that range, when seen in few replicates, are hard to tell from nonspecific mating. The authors averaged sequences with at least three values out of six and counted those with two or fewer as poor binders.

Values reported by Li et al. 2023, doi:10.1038/s41467-023-39022-2 (FLAb copy).